Among the data in PubChem BioAssay AID2777 (Johns Hopkins Ion Channel Center, 2010) are activity change, negative = inhibition values, retold here.

For this assay, the system named is transient receptor potential cation channel C4 (TRPC4), mouse. As to the kind of experiment: membrane potential change in TRPC4 cells – cell-based, HEK293 TRPC4/mu-opioid, membrane potential dye, selectivity assay for TRPC6 inhibitor project, confirmation (AID 2777).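 Further: integrated kinetic ratio of fluorescence range over baseline.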 The note with it: membrane potential fluorescence, at 10 µM.

SMILES strings stand for the structures. Only a part is listed here, and it is no random draw. Some tests of the compounds listed are not included; inactive here does not mean inactive elsewhere. The source made the active and inactive calls.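 How the source made its calls: active means rise or fall in signal beyond 3 SD of buffer-only wells in both replicate plates, either sign; inactive means the rest.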

Consider `O=C(OC1CN2CCC1CC2)C(CO)(c1ccccc1)c1ccccc1` (stereo unspecified), for which the activity change, negative = inhibition was active: -0.62%.
